From US12121505B2, “Fap-activated therapeutic agents, and uses related thereto” (BACH BIOSCIENCES, LLC, priority 2014, dated 2024) come the findings set out here.

One assay deals with HEK-FAP tumor. The conditions noted are these: 6, 9 or 12 mg/kg once per week iv.
The target in the next assay is T1, FAP (Homo sapiens, UniProt Q12884).
T1 sequence (Q12884 1-760): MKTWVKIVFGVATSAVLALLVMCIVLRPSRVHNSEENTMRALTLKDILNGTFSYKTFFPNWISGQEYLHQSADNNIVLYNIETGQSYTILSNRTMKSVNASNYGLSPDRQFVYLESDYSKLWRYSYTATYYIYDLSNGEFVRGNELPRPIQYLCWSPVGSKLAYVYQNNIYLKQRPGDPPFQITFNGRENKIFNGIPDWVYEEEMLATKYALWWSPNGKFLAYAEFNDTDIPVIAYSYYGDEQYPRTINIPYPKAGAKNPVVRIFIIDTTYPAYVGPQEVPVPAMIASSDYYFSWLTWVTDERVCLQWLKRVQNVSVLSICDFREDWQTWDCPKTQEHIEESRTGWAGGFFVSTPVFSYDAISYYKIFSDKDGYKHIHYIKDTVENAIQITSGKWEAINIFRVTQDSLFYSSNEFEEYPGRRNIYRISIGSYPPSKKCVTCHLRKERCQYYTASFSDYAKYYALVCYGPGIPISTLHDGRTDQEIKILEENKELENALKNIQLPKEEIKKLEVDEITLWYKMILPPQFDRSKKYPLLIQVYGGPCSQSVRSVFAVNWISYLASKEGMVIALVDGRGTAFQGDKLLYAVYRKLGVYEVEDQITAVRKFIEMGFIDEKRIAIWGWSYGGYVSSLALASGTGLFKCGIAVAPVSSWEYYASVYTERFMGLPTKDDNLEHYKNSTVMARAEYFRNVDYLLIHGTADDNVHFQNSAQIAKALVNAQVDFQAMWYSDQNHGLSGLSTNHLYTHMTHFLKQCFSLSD
The experiment in a line: Rate of recombinant FAP activity on doxorubicin prodrugs. As to conditions: 37° C., 24 hours.

With `COc1cccc2c1C(=O)c1c(O)c3c(c(O)c1C2=O)C[C@@](O)(C(=O)CO)C[C@@H]3O[C@H]1C[C@H](NC(=O)[C@@H]2CCCN2C(=O)[C@@H](C)NC(=O)c2ccncc2)[C@H](O)[C@H](C)O1` [Compound 3099DOX], the survival result in the assay with HEK-FAP tumor was “significantly longer survival than animals treated with either vehicle alone or doxorubicin”. Moreover, the “rate of yielding free doxorubicin” value on FAP is reported as “significantly faster than either z-GP-DOX or 3996DOX”.
